Amino acid sequences for entries named in this document (tags omitted).
UniProt Q9UHD2, whole entry: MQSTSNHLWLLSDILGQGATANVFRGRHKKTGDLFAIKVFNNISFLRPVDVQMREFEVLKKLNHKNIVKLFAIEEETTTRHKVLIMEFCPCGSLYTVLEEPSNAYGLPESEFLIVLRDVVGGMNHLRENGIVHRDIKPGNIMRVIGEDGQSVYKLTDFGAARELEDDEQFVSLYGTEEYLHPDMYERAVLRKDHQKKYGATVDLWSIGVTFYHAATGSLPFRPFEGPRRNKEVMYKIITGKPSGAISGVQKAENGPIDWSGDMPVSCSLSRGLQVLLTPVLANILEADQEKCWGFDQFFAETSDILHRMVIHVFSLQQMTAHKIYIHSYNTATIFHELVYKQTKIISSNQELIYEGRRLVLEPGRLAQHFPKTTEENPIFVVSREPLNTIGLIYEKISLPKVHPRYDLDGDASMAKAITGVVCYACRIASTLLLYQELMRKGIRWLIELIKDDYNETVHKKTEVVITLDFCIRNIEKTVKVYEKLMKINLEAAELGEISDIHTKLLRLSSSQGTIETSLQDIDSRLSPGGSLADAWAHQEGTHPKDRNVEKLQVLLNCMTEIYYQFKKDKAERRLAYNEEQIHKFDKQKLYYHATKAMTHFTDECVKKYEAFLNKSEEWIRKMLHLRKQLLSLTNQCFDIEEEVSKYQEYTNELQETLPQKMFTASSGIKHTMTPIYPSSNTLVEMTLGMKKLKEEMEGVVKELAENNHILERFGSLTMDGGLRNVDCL

In patent publication US10946017B2, “Tank-binding kinase-1 PROTACs and associated methods of use” (Arvinas Operations, Inc., priority 2015, dated 2021):

Biological target: TBK1 (Homo sapiens (Human), UniProt Q9UHD2)
Assay: In vitro TBK1 degradation assay, Panc02.13 cells (compounds 3-33), immunoblot
Conditions: read-out: DC50 (concentration at which 50% degradation is observed), 16 h, mean of ≥ 2 determinations

Compound | DC50
Cc1ncsc1-c1ccc(CNC(=O)[C@@H]2C[C@@H](O)CN2C(=O)[C@@H](NC(=O)COCCOCCOc2ccc(Nc3ncc(Br)c(NCCCN(C)C(=O)C4CCC4)n3)cc2)C(C)(C)C)cc1 | > 1000 nM
Cc1ncsc1-c1ccc(CNC(=O)[C@@H]2C[C@@H](O)CN2C(=O)[C@@H](NC(=O)COCCCCOc2ccc(Nc3ncc(Br)c(NCCCN(C)C(=O)C4CCC4)n3)cc2)C(C)(C)C)cc1 | > 1000 nM
